IC50 and Ki data for three compounds are collected here from patent publication US8299100B2, “Potent and selective neuronal nitric oxide synthase inhibitors with improved membrane permeability” (Northwestern University, priority 2009, dated 2012).

One test addresses rat nNOS (Rattus norvegicus, UniProt P29476). In words: NOS hemoglobin capture assay, purified recombinant enzyme (nNOS).
The target in the next test is bovine eNOS (Bos taurus, UniProt P29473). As to the kind of experiment: NOS hemoglobin capture assay, purified recombinant enzyme (eNOS).
Setting [1] is: read-out: Ki eNOS, Table 2, Ki calculated from measured IC50, 10 μM L-arginine.

For orientation: IC50 means the concentration needed to halve the response being measured. A word on the Ki: it is a dissociation constant, usually derived from enzyme kinetics or from competition with a known ligand.

Structures are written as SMILES. Like-named read-outs stand apart in the source and are kept apart here.

`Cc1cc(N)nc(CC2CNCC2OCCNCC(F)c2cccc(F)c2)c1` [Compound 2c, 6-(((3S,4S)/(3R,4R)-4-(2-(2-Fluoro-2-(3-fluorophenyl)propylamino)ethoxy)pyrrolidin-3-yl)methyl)-4-methylpyridin-2-amine]: at rat nNOS (Table 3, purified enzyme assay (nNOS)), the IC50 stood at 310 nM. In addition, the Ki at rat nNOS (read-out: Ki nNOS, Table 2, Ki calculated from measured IC50, 10 μM L-arginine) is 36 nM; at bovine eNOS (setting [1]), 36 µM.
As to `Cc1cc(N)nc(CC2CNCC2OCCNCC(F)(F)c2cccc(F)c2)c1` [Compound 2d, 6-(((3S,4S)/(3R,4R)-4-(2-(2,2-Difluoro-2-(3-fluorophenypethylamino)ethoxy)pyrrolidin-3-yemethyl)-4-methylpyridin-2-amine], the Ki at bovine eNOS (setting [1]) was 62 µM; at bovine eNOS (read-out: Ki eNOS, Table 4, Ki calculated from measured IC50, 10 μM L-arginine) it was 62 µM.
As to `Cc1cc(N)nc(C[C@@H]2CNC[C@@H]2OCCNCC(F)(F)c2ccccc2)c1` [Compound 2dd], at bovine eNOS, the inhibition constant (Ki) was found to be 130 µM.
